# Test: Transition pH (pHc) / pH-dependent solubility of polymers
substance,measurement,value
"Poly[2-(N,N-dimethylamino)ethyl methacrylate] [PDMA]",solubility as a function of pH,soluble at all pH ranges

# Source: patent US8945629B2, “Nanoparticles for cytoplasmic drug delivery to cancer cells” (University of Wyoming, priority 2004, dated 2015)
